Measurements reported in US5280119A, “Heterocyclic amine-boranes, and method of inhibiting DNA topoisomerase activity and/or combatting inflammation, hyperlipidemia, and/or neoplasia using amine-borane compounds” (dated 1994).
Values after ≈ are worked out from the molar mass of the structure shown.

Sequences of proteins named here, by UniProt entry; tags and fusion partners are left off. A change or cut given only in a name is not applied to a line headed by its entry.
UniProt P11388: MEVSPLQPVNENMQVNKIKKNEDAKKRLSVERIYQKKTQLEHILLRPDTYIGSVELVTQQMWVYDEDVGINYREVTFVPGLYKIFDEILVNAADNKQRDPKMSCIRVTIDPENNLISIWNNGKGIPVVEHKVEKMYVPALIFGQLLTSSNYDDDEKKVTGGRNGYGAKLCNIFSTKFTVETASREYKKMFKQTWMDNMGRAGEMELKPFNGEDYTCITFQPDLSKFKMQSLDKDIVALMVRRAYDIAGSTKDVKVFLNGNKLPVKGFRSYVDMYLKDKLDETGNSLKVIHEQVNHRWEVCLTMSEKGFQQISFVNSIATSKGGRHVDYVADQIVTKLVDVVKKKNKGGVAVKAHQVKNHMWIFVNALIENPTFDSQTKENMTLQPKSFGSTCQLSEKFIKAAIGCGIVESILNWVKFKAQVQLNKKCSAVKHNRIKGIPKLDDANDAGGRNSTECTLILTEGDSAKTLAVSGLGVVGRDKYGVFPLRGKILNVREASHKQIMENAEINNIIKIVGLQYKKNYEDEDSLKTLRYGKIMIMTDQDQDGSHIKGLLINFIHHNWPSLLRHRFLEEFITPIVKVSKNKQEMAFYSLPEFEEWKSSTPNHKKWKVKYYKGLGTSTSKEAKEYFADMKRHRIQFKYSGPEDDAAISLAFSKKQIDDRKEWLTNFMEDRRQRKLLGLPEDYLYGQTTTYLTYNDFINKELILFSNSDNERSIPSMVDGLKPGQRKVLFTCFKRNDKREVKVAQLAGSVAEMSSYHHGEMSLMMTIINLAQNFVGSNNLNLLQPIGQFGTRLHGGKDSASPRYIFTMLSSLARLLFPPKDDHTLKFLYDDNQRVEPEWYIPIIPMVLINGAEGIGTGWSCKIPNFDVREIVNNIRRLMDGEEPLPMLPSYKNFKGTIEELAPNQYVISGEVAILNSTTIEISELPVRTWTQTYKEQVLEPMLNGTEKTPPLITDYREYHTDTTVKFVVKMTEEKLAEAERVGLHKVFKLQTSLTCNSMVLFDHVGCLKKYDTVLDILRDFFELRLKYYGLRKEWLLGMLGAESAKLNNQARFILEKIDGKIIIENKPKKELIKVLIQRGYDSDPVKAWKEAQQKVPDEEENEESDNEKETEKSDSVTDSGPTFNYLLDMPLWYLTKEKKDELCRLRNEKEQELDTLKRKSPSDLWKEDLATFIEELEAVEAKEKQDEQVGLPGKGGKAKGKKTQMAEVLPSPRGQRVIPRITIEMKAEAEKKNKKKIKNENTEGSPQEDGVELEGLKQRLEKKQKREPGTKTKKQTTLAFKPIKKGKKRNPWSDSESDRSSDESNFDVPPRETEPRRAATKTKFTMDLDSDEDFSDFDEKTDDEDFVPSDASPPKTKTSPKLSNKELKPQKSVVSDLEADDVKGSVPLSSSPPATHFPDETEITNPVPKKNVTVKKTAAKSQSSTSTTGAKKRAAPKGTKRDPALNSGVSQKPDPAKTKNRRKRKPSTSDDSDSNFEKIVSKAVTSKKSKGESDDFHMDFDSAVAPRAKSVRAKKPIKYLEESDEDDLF

How the values were obtained:
[1] = tested on: human Tmolt3 acute lymphoblastic T cell leukemia; assay: Cytotoxicity, Tmolt3; settings: trypan blue exclusion
[2] = tested on: HeLa-S^3 suspended cervical carcinoma; assay: Cytotoxicity, HeLa-S3; settings: hela-s3 cells
glioma EH 118 MG = assay: Cytotoxicity, glioma EH 118 MG; settings: eh 118 mg cells
osteosarcoma TE418 = assay: Cytotoxicity, osteosarcoma TE418; settings: te418 cells
[3] = Hypolipidemic screen in normal mice; settings: CF1 male mice, IP; for Serum Cholesterol Day 9 / Serum Cholesterol Day 16 / Serum Triglycerides Day 16: 8 Mg/kg/day, N = 6
[4] = tested on: murine L1210 lymphoid leukemia; assay: Cytotoxicity, L1210 lymphoid leukemia; settings: trypan blue exclusion
[5] = tested on: lung bronchogenic MB-9812; assay: Cytotoxicity, lung bronchogenic MB-9812; settings: for ED50 Cytotoxicity, Human Lung Bronchogenic: concentration which inhibits 50% of cell growth
[6] = tested on: P388 lymphocytic leukemia; assay: Cytotoxicity, P388 lymphocytic leukemia; settings: for ED50 Cytotoxicity, P388 Lymphocytic Leukemia: p388 cells
[7] = tested on: KB epidermoid nasopharynx; assay: Cytotoxicity, KB epidermoid nasopharynx; settings: kb cells
[8] = Anti-inflammatory activity, carrageenan paw; settings: CF1 Mice, 20 mg/kg × 2 (table head; b1373: 8 mg/kg i.p. 3 hours and 30 minutes before carrageenan)
[9] = tested on: colorectal adenocarcinoma SW480; assay: Cytotoxicity, colorectal adenocarcinoma SW480; settings: sw480 cells
[10] = target: DNA topoisomerase II (HeLa) (Homo sapiens, UniProt P11388); assay: DNA topoisomerase II inhibition (unknotting of knotted DNA); settings: one hour reaction, agarose gel
[11] = tested on: Ehrlich ascites carcinoma; assay: in vivo Ehrlich ascites carcinoma screen; settings: 20 mg/kg/day I.P., CF1 male mice
Lewis lung carcinoma = assay: In vivo Lewis lung carcinoma activity; settings: 8 mg/kg/day I.P.

Row | SMILES | ED50 Cytotoxicity, Human lymphocyte Tmolt3 [1] [µg/mL] | ED50 Cytotoxicity, Human HeLa-S^3 [2] [µg/mL] | ED50 Cytotoxicity, Human Glioma (glioma EH 118 MG) [µg/mL] | ED50 Cytotoxicity, Human Osteo-Sarcoma (osteosarcoma TE418) [µg/mL] | Serum Cholesterol Day 9 [3] | Serum Cholesterol Day 16 [3] | Serum Triglycerides Day 16 [3] | serum cholesterol level lowered ([3]; doses of Table 6) [%] | ED50 Cytotoxicity, L1210 Lymphoid Leukemia [4] [µg/mL] | ED50 Cytotoxicity, Human Lung Bronchogenic [5] [µg/mL] | ED50 Cytotoxicity, P388 Lymphocytic Leukemia [6] [µg/mL] | ED50 Cytotoxicity, Human KB [7] [µg/mL] | % of Control, anti-inflammatory (paw weight increase) [8] | ED50 Cytotoxicity, Human Colon SW480 [9] [µg/mL] | Inhibitory Concentration, Topoisomerase II [10] [µM] | inhibition of growth, in vivo Ehrlich ascites carcinoma [11] [%] | T/C%, in vivo Lewis lung carcinoma (Lewis lung carcinoma) [%] | serum triglyceride levels lowered ([3]; doses of Table 6) [%] | activity against growth of lung bronchogenic tumor (in words) ([5]; text summary of Table 4) | activity in the murine P388 lymphocytic screen (in words) ([6]; text summary of Table 4)
1 | O=C(O)[BH2-][NH+]1CCOCC1 | 1.96 (≈ 13.5 µM) | 2.14 (≈ 14.8 µM) | 2.44 (≈ 16.8 µM) | 6.65 (≈ 45.9 µM) | 63 ± 6% of Control | 57 ± 5% of Control | 84 ± 7% of Control | 43 | 4.44 (≈ 30.6 µM) | 6.30 (≈ 43.5 µM) | 12.30 (≈ 84.8 µM) | 7.12 (≈ 49.1 µM) | 66 % of Control | 7.02 (≈ 48.4 µM) | 100 | – | – | – | – | –
2 | Cn1cc[n+]([BH2-]C(=O)O)c1 | 2.72 (≈ 19.4 µM) | 1.97 (≈ 14.1 µM) | 3.04 (≈ 21.7 µM) | 7.17 (≈ 51.2 µM) | 75 ± 7% of Control | 66 ± 6% of Control | 63 ± 6% of Control | – | 2.46 (≈ 17.6 µM) | 2.78 (≈ 19.9 µM) | 9.66 (≈ 69 µM) | 4.43 (≈ 31.7 µM) | – | 4.43 (≈ 31.7 µM) | 100 | 73 | – | – | – | –
3 | COC(=O)[BH2-][n+]1ccn(C)c1 | 1.08 (≈ 7.01 µM) | 3.47 (≈ 22.5 µM) | 1.715 (≈ 11.1 µM) | 6.89 (≈ 44.7 µM) | 72 ± 6% of Control | 66 ± 6% of Control | 92 ± 7% of Control | – | 3.69 (≈ 24 µM) | 1.76 (≈ 11.4 µM) | 5.63 (≈ 36.6 µM) | 6.54 (≈ 42.5 µM) | 76 % of Control | 4.06 (≈ 26.4 µM) | – | 99 | 152 | – | – | –
4 | O=C(O)[BH2-][NH+]1CCNCC1 | 3.10 (≈ 21.5 µM) | 1.60 (≈ 11.1 µM) | 2.14 (≈ 14.9 µM) | 4.41 (≈ 30.6 µM) | 77 ± 7% of Control | 74 ± 4% of Control | 76 ± 5% of Control | – | 3.34 (≈ 23.2 µM) | 7.12 (≈ 49.5 µM) | 10.23 (≈ 71.1 µM) | 7.23 (≈ 50.2 µM) | 79 % of Control | 6.19 (≈ 43 µM) | 100 | – | – | – | – | –
5 | CC1CC[NH+]([BH2-]C(=O)O)CC1 (centres unmarked) | 2.61 (≈ 16.6 µM) | 1.71 (≈ 10.9 µM) | 2.53 (≈ 16.1 µM) | 7.47 (≈ 47.6 µM) | 106 ± 7% of Control | 85 ± 6% of Control | 53 ± 4% of Control | – | 2.85 (≈ 18.2 µM) | 3.51 (≈ 22.4 µM) | 3.89 (≈ 24.8 µM) | 6.19 (≈ 39.4 µM) | 80 % of Control | 6.50 (≈ 41.4 µM) | 100 | 78 | 179 | 47 | significant activity | active
